Test results taken from PubChem BioAssay (Tox21).
“And” between values parts separate entries of the source, which are not always exact repeats. Identical values can stand only once. Only a part is listed here, and it is no random draw. Records with an inconclusive call do not appear. Entries that show only a call come without a potency. The source made the active and inactive calls. Calls follow the shape of the dose curve; as a rule, active = well fitted activation curve with a large enough effect in the repeat runs; inconclusive = weak or mixed curves; inactive = flat fitted curve, though single readings scatter.

assay: A CellTox Green Cytotoxicity Assay to monitor cytotoxicity in HepG2 cells - 16 hour (AID 1224876); details: CellTox Green fluorescence; series mostly up to 76.8 µM; also: nearly all actives have a fitted effect of over 45% in size
Excerpt: National Center for Advancing Translational Sciences [NCATS]
NIH Chemical Genomics Center [NCGC]
U.S. Environmental Protection Agency [EPA]
National Institutes of Environmental Health Sciences [NIEHS]
National Toxicology Program [NTP]
Cell-based models are critical for drug discovery. Determining the natural cytotoxic effects resulting from test compounds is an essential research activity. A CellTox Green Cytotoxicity Assay to monitor cytotoxicity in real time of continues cell culture during 40 hours of the compound treatment was used to screen Tox21 10K library compounds in HepG2 cells. CellTox Green Cytotoxicity Assay is a nonlytic, homogeneous, biofluorescent method to measure cytotoxicity in cell culture after experimental manipulation. The assay system uses a proprietary asymmetric cyanine dye that is excluded from viable cells but preferentially stains the dead cell's DNA. […] Viable cells produce no appreciable increases in fluorescence. Therefore, the fluorescence signal produced by the binding interaction with dead cell DNA is proportional to cytotoxicity.
The mixture of HepG2 cell suspension and reagents were dispensed at 600cells/6 ul/well in 1536-well tissue culture treated black solid bottom plates using a Multidrop dispenser. After the assay plates were incubated at a 37 C/5% CO2 incubator for 5 hours, 23 nL of compounds dissolved in DMSO, positive and negative controls was transferred to the assay plate by a pintool work station. The plates were incubated at 37 C for 40 hours. The fluorescence intensity were measured at 0h, 8h, 16h, 24h, 32h and 40h time points using ViewLux plate reader during compound treatment.
Potency is read from the fitted curve at half-maximal effect.

| SMILES | Potency | cytotoxicity increase |
| --- | --- | --- |
| O=C(Cl)Oc1ccccc1 | inactive |  |
| O=[p+]1oc2ccccc2c2ccccc21 (centres undefined) | inactive |  |
| O=C1C2CC=CCC2C(=O)N1SC(Cl)(Cl)C(Cl)Cl (centres undefined) | active: 44 µM and active: 7.76 µM |  |
| CCCCOP(OCCCC)OCCCC | inactive |  |
| CC(C)OP(=S)(OC(C)C)SCCNS(=O)(=O)c1ccccc1 | inactive |  |
| CCCCC(CC)CO[P+](=O)OCC(CC)CCCC (centres undefined) | inactive |  |
| Cc1cc([N+](=O)[O-])cc([N+](=O)[O-])c1O | inactive |  |
| O=P(Cl)(Oc1ccccc1)Oc1ccccc1 | inactive |  |
| Cc1cc([N+](=O)[O-])c(O)c([N+](=O)[O-])c1 | inactive |  |
| O=[P+](Oc1ccccc1)Oc1ccccc1 | inactive |  |
| COC(=O)Cl | inactive |  |
| CCC(C)(OOC(C)(C)C)OOC(C)(C)C |  | inactive: -20.6% [at 15.8 µM] |
| NC(=O)Nc1ccc([As](=O)(O)O)cc1 | inactive |  |
| ClP(Cl)c1ccccc1 | inactive |  |
| CN(C(=O)Cc1ccccc1)[C@H]1CC[C@@]2(CCCO2)C[C@@H]1N1CCCC1 | inactive |  |
| CN(N=O)C(=N)N[N+](=O)[O-] | inactive |  |
| CCCCO[P+](=O)OCCCC | inactive |  |
| CC(C)CCCCCCCOP(OCCCCCCCC(C)C)Oc1ccccc1 | inactive |  |
| O=[N+]([O-])c1ccc(S(=O)(=O)O)c([N+](=O)[O-])c1 | inactive |  |
| O=C(Cl)OCCOC(=O)Cl | inactive |  |
| CCNC(C)Cc1ccc2c(c1)OCO2 (centres undefined) | inactive |  |
| O=[N+]([O-])c1ccc([N+](=O)[O-])cc1 | inactive |  |
| CCOC(=O)Cl | inactive |  |
| O=P(Cl)(Cl)c1ccccc1 | inactive |  |
| CN(C(=O)Cc1cccc2occc12)[C@H]1CC[C@@]2(CCCO2)C[C@@H]1N1CCCC1 | inactive |  |
| COP(=S)(Cl)OC | inactive |  |
| CN(C(=O)Cc1ccc(Cl)c(Cl)c1)[C@H]1CC[C@@]2(CCCO2)C[C@@H]1N1CCCC1 | inactive |  |
| O=[As]c1ccccc1 (centres undefined) | active: 1.23 µM |  |
| CCOP(=S)(CC)Sc1ccccc1 (centres undefined) | inactive |  |
